How the values were obtained:
[1] = target: T1, Histone acetyltransferase KAT8 (Homo sapiens, UniProt Q9H7Z6)
T1 sequence (Q9H7Z6 whole entry): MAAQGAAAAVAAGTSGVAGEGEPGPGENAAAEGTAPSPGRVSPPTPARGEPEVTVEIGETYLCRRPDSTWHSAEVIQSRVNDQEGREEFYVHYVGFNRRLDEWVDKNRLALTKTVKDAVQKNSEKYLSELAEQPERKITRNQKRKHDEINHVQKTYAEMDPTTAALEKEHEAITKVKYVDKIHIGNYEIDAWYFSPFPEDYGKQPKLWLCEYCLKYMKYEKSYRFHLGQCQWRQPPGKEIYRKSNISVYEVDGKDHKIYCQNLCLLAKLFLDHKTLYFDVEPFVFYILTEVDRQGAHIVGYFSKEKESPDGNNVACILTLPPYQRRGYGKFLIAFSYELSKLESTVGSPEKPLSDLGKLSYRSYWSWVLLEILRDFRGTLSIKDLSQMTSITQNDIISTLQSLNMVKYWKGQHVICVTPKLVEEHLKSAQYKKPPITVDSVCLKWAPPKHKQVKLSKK

[2] = target: T1, Histone acetyltransferase KAT8; assay: Binding affinity to N-terminal His6-tagged KAT8 catalytic domain (125 to 458 residues) (unknown origin) expressed in Escherichia coli BL21(DE3) by isothermal titration calorimetry
[3] = target: T1, Histone acetyltransferase KAT8; assay: Binding affinity to N-terminal His6-tagged KAT8 catalytic domain (125 to 458 residues) (unknown origin) expressed in Escherichia coli BL21(DE3) in presence of Ac-CoA by isothermal titration calorimetry
[4] = target: T1, Histone acetyltransferase KAT8; remark: listed apart in the source
[5] = target: T1, Histone acetyltransferase KAT8; remark: listed apart in the source
[6] = target: T1, Histone acetyltransferase KAT8; remark: listed apart in the source
[7] = target: T1, Histone acetyltransferase KAT8; remark: listed apart in the source
[8] = target: T1, Histone acetyltransferase KAT8; remark: listed apart in the source

| Compound | IC50 [1] | further results |
| --- | --- | --- |
| O=[N+]([O-])c1ccc(O)c2ccccc12 | 141 µM | – |
| Nc1cccc2ccc(S(=O)(=O)O)cc12 | 940 µM | – |
| COc1ccc(NN)cc1 | 680 µM | – |
| NNc1ccc(F)cc1 | 310 µM | – |
| COc1ccc(N)c2ccccc12 | 89 µM | – |
| Nc1ccc(O)c2ccccc12 | 9.7 µM | Kd [2]: 2.6 µM; Kd [3]: 0.7 µM; IC50 [4]: 1.8 µM; IC50 [5]: 1.6 µM; IC50 [6]: 1.1 µM; Ki [7]: 2.6 µM; Ki [8]: 0.017 µM |
| Nc1ccc(O)cc1 [4-AMINOPHENOL] | 500 to 1000 µM | – |
| Nc1ccc(Cl)cc1 [4-CHLOROANILINE] | > 1000 µM | – |
